Bioassay records: PubChem BioAssay, Broad Institute
Cneo AK release – causes C. neoformans cell lysis. lysis activity, % at 15 µM. adenylate kinase release luminescence, 4 h; normalised: neutral wells 0, clomiphene wells 100. actives 0.2% (n = 360,000);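 active means mean lysis activity across replicates of at least 80%, whatever share of replicates individually reach that level; inactive means mean lysis activity below 80%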
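Assay system: log-phase C. neoformans yeast / Quantity: yeast cell density of 5 × 10^6 cells/mL / Medium: fresh YPD growth medium / Compound: single dose / Timing: static 4 h at 37 °C with compound, 1 h detection / Measured by: adenylate kinase release luminescence / Read-out: lysis from increased AK signal / Benchmarks: Clomiphene as positive lysis control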
Yeast UUG start – modulators of yeast start codon fidelity, primary screen, whole organism, S. cerevisiae, single point, plate reader | AID 602363, 2012 | S. cerevisiae UUG-firefly luciferase reporter, luminescence/redox ratio | activity score, % at 18.7 µM | hit rate 0.13% among 350,000;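 active = replicate mean at a twofold rise or more, about +100% in these data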;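 also: firefly luciferase made from a UUG start codon reports start codon fidelity; reporter light over untreated wells divided by growth signal over untreated wells; some hits fall short of that in this replicate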
FN deposition inh – fibronectin deposition inhibition. AH1F fibroblasts, Alexa488-fibronectin deposition fluorescence, overnight. inhibition, % at 12.6 µM. actives 0.086% (n = 350,000);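 active means mean inhibition across replicates of 30% or more, regardless of how many single replicates reach that level; inconclusive means mean under 30% yet at least half of replicates reach 30%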;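 further: positive control wells lacked labelled fibronectin entirely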
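Assay system: AH1F fibroblasts assembling fluorescent fibronectin matrix; Amount: 10000 AH1F cells per well; Buffer or medium: DMEM, 2% serum; Probe or stimulus: Alexa488-fibronectin, 24 nM final in well; Doses: single compound dose, delivered by pin transfer; Incubation: 1 h adhesion, overnight exposure; Measured by: fluorescence 485/525 nm; Read-out: fibronectin deposition inhibition.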
Env fusion inh – inhibitors of HIV Env-mediated cell fusion; HeLa-JRFL Env/CEM21 cell fusion, luciferase; inhibition, % at 12.3 µM; actives 1.1% (n = 360,000); AID 651610;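 active means mean replicate inhibition score of at least 50 and every replicate individually at or above 50; inconclusive means only one of the two criteria met; inactive means mean below 50 and not all replicates reaching 50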;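 further: 0% = plate neutral controls and 100% = maraviroc near 300 nM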
PGC1a acetyl inh – modulators of PGC1a acetylation; U2OS PGC1a acetylation, AlphaScreen anti-acetyl-lysine; with virally co-expressed GCN5 acetyltransferase; inhibition, % at 15.6 µM; actives 0.17% (n = 350,000); AID 651687;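 active means every replicate shows inhibition of at least 40%; inconclusive means mean inhibition at least 40% but some replicate below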;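 further: 0% = neutral control wells and 100% = positive control wells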
miR-122 sensor – miR-122 inhibition in Huh7 cells. actives 0.3% (n = 340,000). Huh7 miR-122 Renilla luciferase sensor, 48 h; neutral wells = 0, positive control = 100. AID 602342. activation (reporter increase), % at 12.5 µM;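 active means mean replicate activation score at least 90 and every replicate individually at or above 90; inconclusive means only one of the two criteria met; inactive means neither criterion met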;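 further: higher luciferase means less miR-122 activity so hits act as miR-122 inhibitors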
Numbers without * were called inactive; ? = inconclusive; / = no result given; [ ] = another dose, or the depositor's remark. Only some compounds are listed: those with a hit (about 1.5% of all), similar ones and a draw of the others.

Order of results: Cneo AK release | Yeast UUG start | FN deposition inh | Env fusion inh | PGC1a acetyl inh | miR-122 sensor
1. COc1ccc(S(=O)(=O)Nc2ccc3c(c2)CC(=O)N([C@@H](C)CO)C[C@H](C)[C@H](CN(C)S(=O)(=O)c2ccc(F)cc2)O3)cc1
 : 1 | 1 | / | 66*[16.7 µM] | 6 | -8[16.7 µM]
2. Cc1ccc(S(=O)(=O)N(C)C[C@@H]2Oc3ccc(NS(=O)(=O)c4ccc(Cl)cc4)cc3CC(=O)N([C@H](C)CO)C[C@@H]2C)cc1
 : 1 | 6 | / | 56*[16.7 µM] | 10 | 0[16.7 µM]
3. COc1ccc(S(=O)(=O)Nc2ccc3c(c2)CC(=O)N([C@@H](C)CO)C[C@H](C)[C@H](CN(C)S(=O)(=O)c2ccc(C)cc2)O3)cc1
 : 1 | -5 | / | 96*[16.7 µM] | 4 | -8[16.7 µM]
4. COC(=O)/C=C1/SC(=Nc2ccc(Cl)c(Cl)c2)NC1=O
 : 1 | -23 | -3 | 16 | 4 | 1
5. CCN1C(=O)C(C)S/C1=N\S(=O)(=O)c1ccc(F)cc1 (stereo not given)
 : / | / | -2 | -5 | / | /
6. Cc1cccc(NC(=O)/C=C/c2ccc([N+](=O)[O-])s2)c1
 : / | / | -8 | -292 | / | /
7. O=C(N/N=C/c1ccc([N+](=O)[O-])s1)c1cccc(Br)c1
 : -1 | -6 | / | 66* | / | 2
8. Cc1cccc(NC(=S)N/N=C/c2ccc([N+](=O)[O-])s2)c1
 : 2 | -33 | 3 | 105* | -26 | -1
9. CC(=O)N1CCN(C(=O)c2ccc(C)c(S(=O)(=O)N3CCCCC3)c2)CC1
 : 0 | -30 | 7 | 5 | / | /
10. C[C@@H]1CN([C@H](C)CO)C(=O)Cc2cc(NC(=O)Nc3cccc4ccccc34)ccc2O[C@@H]1CN(C)C(=O)NC1CCCCC1
 : 11 | 10 | / | 11[16.7 µM] | -17 | 121*[16.7 µM]
11. C[C@@H]1CN([C@H](C)CO)C(=O)Cc2cc(NC(=O)Nc3ccc4c(c3)OCO4)ccc2O[C@@H]1CN(C)C(=O)Nc1cccc2ccccc12
 : 0 | -11 | -6 | 11[16.7 µM] | -1 | 129*[16.7 µM]
12. C[C@H](CO)N1C[C@H](C)[C@@H](CN(C)C(=O)Nc2cccc3ccccc23)Oc2ccc(NC(=O)C3CC3)cc2CC1=O
 : -18 | 1 | / | 40[16.7 µM] | -3 | -2[16.7 µM]
13. Cc1noc(C)c1NC(=O)N(C)C[C@@H]1Oc2ccc(NS(=O)(=O)c3cn(C)cn3)cc2CC(=O)N([C@H](C)CO)C[C@H]1C
 : 103* | 1 | 18 | -20[16.7 µM] | 9 | 37[16.7 µM]
14. C[C@@H]1CN([C@@H](C)CO)C(=O)Cc2cc(NC(=O)Nc3ccc4c(c3)OCO4)ccc2O[C@@H]1CN(C)C(=O)Nc1cccc2ccccc12
 : -3 | -3 | -4 | 17[16.7 µM] | -12 | ?
15. C[C@H]1CN([C@@H](C)CO)C(=O)Cc2cc(NC(=O)C3CC3)ccc2O[C@@H]1CN(C)C(=O)Nc1cccc2ccccc12
 : 111* | 18 | / | 11[16.7 µM] | 3 | -1[16.7 µM]
16. COc1ccc(S(=O)(=O)NC(CC(=O)O)c2ccco2)cc1 (stereo not given)
 : / | / | 2 | -26 | / | /
17. Cc1noc(C)c1NC(=O)N(C)C[C@H]1Oc2ccc(NC(=O)C3CC3)cc2CC(=O)N([C@@H](C)CO)C[C@H]1C
 : 117* | 18 | / | -32[16.7 µM] | 30 | 44[16.7 µM]
18. C[C@H](CO)N1C[C@H](C)[C@H](CN(C)C(=O)Nc2cccc3ccccc23)Oc2ccc(NC(=O)Cc3ccccc3)cc2CC1=O
 : 102* | 11 | / | -7[16.7 µM] | -13 | 33[16.7 µM]
19. Cc1noc(C)c1NC(=O)N(C)C[C@@H]1Oc2ccc(NC(=O)C3CCCCC3)cc2CC(=O)N([C@@H](C)CO)C[C@@H]1C
 : 6 | -10 | -5 | 2[16.7 µM] | 6 | -5[16.7 µM]
20. C[C@H](CO)N1C[C@H](C)[C@@H](CN(C)C(=O)Nc2cccc3ccccc23)Oc2ccc(NC(=O)Cc3ccccc3)cc2CC1=O
 : -25 | -1 | / | 28[16.7 µM] | 0 | -6[16.7 µM]
21. C[C@@H]1CN([C@H](C)CO)C(=O)Cc2cc(NC(=O)Nc3cccc4ccccc34)ccc2O[C@@H]1CN(C)C(=O)Nc1cccc2ccccc12
 : -5 | -15 | / | 4[16.7 µM] | 7 | 99*[16.7 µM]
22. C[C@H](CO)N1C[C@H](C)[C@H](CN(C)C(=O)Nc2cccc3ccccc23)Oc2ccc(NC(=O)Nc3cccc4ccccc34)cc2CC1=O
 : -2 | -15 | / | 11[16.7 µM] | 7 | -3[16.7 µM]
23. CNC[C@@H]1OCCCC[C@@H](C)Oc2ccc(NC(=O)c3ccccc3)cc2C(=O)N([C@H](C)CO)C[C@@H]1C
 : -1 | -10 | / | 7[16.7 µM] | 7 | -3[16.7 µM]
24. CC(C)NC(=O)N(C)C[C@H]1OCCCC[C@H](C)Oc2ccc(NC(=O)c3ccccc3)cc2C(=O)N([C@@H](C)CO)C[C@@H]1C
 : 95* | / | / | -25[16.7 µM] | -1 | -8[16.7 µM]
25. CNC[C@@H]1OCCCC[C@H](C)Oc2ccc(NC(=O)Nc3ccc(F)cc3)cc2C(=O)N([C@@H](C)CO)C[C@H]1C
 : 101* | 38 | / | 19[16.7 µM] | -5 | 11[16.7 µM]
26. CC(C)NC(=O)N(C)C[C@@H]1OCCCC[C@@H](C)Oc2ccc(NC(=O)c3ccccc3)cc2C(=O)N([C@@H](C)CO)C[C@@H]1C
 : -1 | / | / | 6[16.7 µM] | 0 | -3[16.7 µM]
27. CNC[C@@H]1OCCCC[C@H](C)Oc2ccc(NC(=O)c3ccccc3)cc2C(=O)N([C@@H](C)CO)C[C@@H]1C
 : 82* | 21 | / | 4[16.7 µM] | -40 | 12[16.7 µM]
28. CC(C)NC(=O)N(C)C[C@@H]1OCCCC[C@@H](C)Oc2ccc(NC(=O)c3ccccc3)cc2C(=O)N([C@H](C)CO)C[C@@H]1C
 : 111* | / | / | 0[16.7 µM] | 2 | -5[16.7 µM]
29. CC(C)NC(=O)N(C)C[C@H]1OCCCC[C@@H](C)Oc2ccc(NC(=O)c3ccccc3)cc2C(=O)N([C@H](C)CO)C[C@H]1C
 : -1 | / | / | 3[16.7 µM] | -10 | -5[16.7 µM]
30. COc1cccc(C(=O)C2CCCN(Cc3ccc(OC)c(Cn4cncn4)c3)C2)c1 (stereo not given)
 : -4 | 8 | 1 | 1 | 14 | 8

Sorted by heavy-atom count (smallest number first): some entries from above.
Order of results: Cneo AK release | Yeast UUG start | FN deposition inh | Env fusion inh | PGC1a acetyl inh | miR-122 sensor
7. O=C(N/N=C/c1ccc([N+](=O)[O-])s1)c1cccc(Br)c1
 : -1 | -6 | / | 66* | / | 2
30. COc1cccc(C(=O)C2CCCN(Cc3ccc(OC)c(Cn4cncn4)c3)C2)c1 (stereo not given)
 : -4 | 8 | 1 | 1 | 14 | 8
2. Cc1ccc(S(=O)(=O)N(C)C[C@@H]2Oc3ccc(NS(=O)(=O)c4ccc(Cl)cc4)cc3CC(=O)N([C@H](C)CO)C[C@@H]2C)cc1
 : 1 | 6 | / | 56*[16.7 µM] | 10 | 0[16.7 µM]
10. C[C@@H]1CN([C@H](C)CO)C(=O)Cc2cc(NC(=O)Nc3cccc4ccccc34)ccc2O[C@@H]1CN(C)C(=O)NC1CCCCC1
 : 11 | 10 | / | 11[16.7 µM] | -17 | 121*[16.7 µM]

Copied from the list.
Result of no. 23 under miR-122 sensor: -3[16.7 µM]
Result of no. 12 under PGC1a acetyl inh: -3
Result of no. 10 under miR-122 sensor: 121*[16.7 µM]

Remaining list, next part.
Order of results: Cneo AK release | Yeast UUG start | FN deposition inh | Env fusion inh | PGC1a acetyl inh | miR-122 sensor
31. CC1=C(C(=O)OCC(C)C)C(c2cc3c(cc2Br)OCO3)NC(=O)N1C (stereo not given)
 : 2 | -18 | / | / | 0 | 1
32. CC(C)NC(=O)N(C)C[C@@H]1OCCCC[C@H](C)Oc2ccc(NC(=O)Cc3ccccc3)cc2C(=O)N([C@H](C)CO)C[C@H]1C
 : 101* | / | -5 | 13[16.7 µM] | 0 | -7[16.7 µM]
33. CC(C)NC(=O)N(C)C[C@@H]1OCCCC[C@@H](C)Oc2ccc(NC(=O)c3ccccc3)cc2C(=O)N([C@H](C)CO)C[C@H]1C
 : 103* | / | / | -107[16.7 µM] | 6 | -13[16.7 µM]
34. O=C(NCC[C@H]1CC[C@H](NS(=O)(=O)c2cccc(F)c2)[C@H](CO)O1)Nc1cc(F)ccc1F
 : -3 | -6 | / | -7[16.7 µM] | -15 | /
35. C[C@H](CO)N1C[C@H](C)[C@@H](CN(C)CC2CCCC2)Oc2cc(C#CC3CC3)ccc2S1(=O)=O
 : 23 | 33 | / | -1[16.7 µM] | 32 | 25[16.7 µM]
